Measured values published in patent publication US20240254186A1, “GLP-1 Receptor Agonists Having Improved Pharmacological and Drug Delivery Properties” (priority 2021, published 2024).

Amino acid sequences for entries named in this document (tags omitted). Residues count along the entry.
UniProt P43220, 24-463: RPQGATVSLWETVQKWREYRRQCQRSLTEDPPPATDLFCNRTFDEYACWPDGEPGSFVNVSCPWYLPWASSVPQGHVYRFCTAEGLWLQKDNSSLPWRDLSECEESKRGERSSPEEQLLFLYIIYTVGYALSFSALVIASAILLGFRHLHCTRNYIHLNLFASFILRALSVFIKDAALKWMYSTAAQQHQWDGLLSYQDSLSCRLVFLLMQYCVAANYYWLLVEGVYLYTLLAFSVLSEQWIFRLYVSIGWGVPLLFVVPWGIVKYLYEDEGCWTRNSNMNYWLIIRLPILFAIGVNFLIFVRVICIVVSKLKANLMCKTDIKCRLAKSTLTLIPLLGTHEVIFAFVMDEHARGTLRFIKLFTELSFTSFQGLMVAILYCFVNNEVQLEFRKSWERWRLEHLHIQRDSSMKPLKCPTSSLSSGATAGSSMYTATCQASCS

Biological target: T1, hGLP1 receptor (Homo sapiens, UniProt P43220)
T1 construct: expressed in transfected cells; host or cells: HEK (human embryonic kidney) cells co-expressing hGLP1 receptor and a CRE-Luciferase construct
Test: cAMP HTRF agonist assay in HEK cells co-expressing the hGLP1 receptor and CRE-Luciferase construct
Assay type: cell-based
Details: Table 6; cell annotated (0% albumin)

Work on `C[C@@H](O)[C@H](NC(=O)CNC(=O)[C@H](CCC(=O)O)NC(=O)[C@]1(C)CCCN1C(=O)[C@@H](N)Cc1c[nH]cn1)C(=O)N[C@@](C)(Cc1ccccc1F)C(=O)N[C@H](C(=O)N[C@@H](CO)C(=O)N[C@@H](CC(=O)O)C(=O)N[C@](C)(Cc1ccc(-c2ccccc2)cc1)C(=O)N[C@@H](Cc1ccc(-c2ccccc2)cc1)C(N)=O)[C@@H](C)O` [4-72-i2, H2N-His-α-MePro-Glu-Gly-Thr-α-MePhe(2F)-Thr-Ser-Asp-α-MeBip-Bip-C(O)NH2] yielded an EC50 of over 1 nM.
